Screening data: PubChem BioAssay, several laboratories
Sampled rows, rich in hits. Any-hit rate of the full collection: about 1.2%.
Arrestin-AP2 inh – inhibitors of human beta-arrestin and AP2 interaction. FITC-arrestin peptide / GST-AP2 beads, flow cytometry; AP2 beta2 appendage carries R879A mutation. inhibition, % at 10 µM. 340,000 compounds, 0.31% hits. AID 504490;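 active means inhibition above a set limit, near 3 SD of compounds lacking own fluorescence, cut at about 54% in these data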;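 further: plate controls were DMSO wells for no effect and 5 µM unlabelled arrestin peptide for full effect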
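Test system: GST-tagged AP2 beta2-adaptin appendage (R879A) on 4 µm glutathione beads; also added: fluorescein-tagged arrestin peptide at 50 nM final; timing: 12 min plus 1 h, RT; signal: flow cytometry, FL1 (488/535 nm); read-out: percent drop in bead-associated FITC signal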
Yeast UUG start – yeast start codon fidelity modulation | S. cerevisiae UUG-firefly luciferase reporter, luminescence/redox ratio | activity score, % at 18.7 µM | 0.13% of 350,000 active | AID 602363;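 active means replicate mean at a twofold rise or more, about +100% in these data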;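 further: firefly luciferase made from a UUG start codon reports start codon fidelity; reporter light over untreated wells divided by growth signal over untreated wells; some hits fall short of that in this replicate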
DSG3 Ab inh – inhibitors of pemphigus antibody binding to human desmoglein-3; P32926; binding (percent of control), % at 10 µM; DSG3-coupled beads, scFv-anti-DSG3-GFP binding, flow cytometry; active compounds read low; 310,000 compounds, 0.48% hits;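 active means binding more than 3 SD below its plate's average and above zero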;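 further: hits lower antibody fragment binding to DSG3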
Tb MetRS inh – Trypanosoma brucei MetRS inhibition; inhibition, % at 11.9 µM; purified T. brucei MetRS, ATP depletion, Kinase-Glo luminescence; 360,000 compounds, 0.4% hits;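 active means inhibition above a per-plate cutoff of the control wells' mean inhibition plus 3 SD, cut at about 5.5% in these data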;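 further: 0% = DMSO wells median and 100% = median of wells with control inhibitor compound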
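Assay system: T. brucei methionyl-tRNA synthetase, purified | Medium: HEPES buffer with MgCl2, KCl, DTT, spermine, BSA, pyrophosphatase | Compound: 11.9 µM single point | Incubation: 15 min enzyme-compound preincubation, 2 h reaction, 10 min detection, 25 °C | Measured by: Kinase-Glo luciferase luminescence reporting remaining unconsumed ATP | Measure: % inhibition normalized to control-well medians | Replication: Singlicate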
Rce1 inh – blocks yeast Ras-converting enzyme; 290,000 compounds, 0.27% hits; Q03530; yeast membranes, quenched prenylated peptide cleavage fluorescence; calls only;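 active means fall in fluorescence gain of 50% or more versus controls, with final raw signal at or below 3038400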;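 further: plate controls were neutral control wells for no effect and wells lacking membranes for full effect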
TbMetRS confirm – Trypanosoma brucei MetRS inhibition confirmed | shares compounds with Tb MetRS inh | T. brucei MetRS enzyme, luminescence (ATP depletion) | inhibition, % at 11.9 µM | 1,400 compounds, 93% hits | AID 624412; in the data active means inhibition above about 7%
Jurkat tox – counter-screen for T. brucei MetRS inhibitors: Jurkat cell cytotoxicity | shares compounds with Tb MetRS inh | Jurkat cells viability, ATP luminescence | inhibition, % at 8.3 µM | 1,400 compounds, 12% hits; in the data active means inhibition above about 15%;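 further: 0% = vehicle and 100% = reference inhibitor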
TbMetRS FP orth – T. brucei MetRS inhibition, orthogonal assay | shares compounds with Tb MetRS inh | purified T. brucei MetRS, fluorescence polarization | inhibition, % at 11.9 µM | 1,400 compounds, 44% hits | AID 651607; in the data active means inhibition above about 17%;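 further: 0% = vehicle wells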
* hit, by the source's call; i = inactive; / = no result.

Order of results: Arrestin-AP2 inh	Yeast UUG start	DSG3 Ab inh	Tb MetRS inh	Rce1 inh	TbMetRS confirm	Jurkat tox	TbMetRS FP orth
> CC(C)C[C@@H](CNCC(=O)[C@H](C)NC(=O)c1[nH]cnc1C(=O)N[C@@H](C)CN)NC(=O)c1nc[nH]c1C(=O)N[C@@H](CC(=O)O)C(=O)O
 : -6	-7	100	1	/	/	/	/
> CC(C)C[C@@H](CNCC(=O)[C@H](Cc1c[nH]c2ccccc12)NC(=O)c1[nH]cnc1C(=O)N[C@@H](C)CN)NC(=O)c1nc[nH]c1C(=O)N[C@@H](C)C(=O)O
 : 35	141*	115	23*	/	37*	-1	10
> O=C(NN1C(=O)/C(=C/c2ccc(O)cc2)SC1=S)c1ccccc1O
 : 10	-5	95	44*	i	58*	-1	33*
> O=C(NN1C(=O)/C(=C/c2ccc(O)cc2)SC1=S)c1cccc(O)c1
 : 44	-9	116	6.7*	i	14*	8	24*
> CC(=O)Nc1ccccc1NC(=O)c1ccccc1-c1ccccc1
 : 6	-8	100	46*	i	3	-1	-4
> CCOc1ccccc1NC(=O)c1ccccc1-c1ccccc1
 : -1	-9	109	0	i	/	/	/
> C[C@@H]1CN([C@H](C)CO)C(=O)c2cccc(NC(=O)Nc3ccc(C(F)(F)F)cc3)c2O[C@@H]1CN(C)S(=O)(=O)c1cccs1
 : /	-13	/	/	/	/	/	/
> Cc1noc(C)c1NC(=O)Nc1ccc2c(c1)C(=O)N([C@@H](C)CO)C[C@@H](C)[C@@H](CN(C)C(=O)CCCN(C)C)OCCCC[C@H](C)O2
 : /	18	/	/	/	/	/	/
> O=c1[nH]c(Cc2cccc(C(F)(F)F)c2)nc2ccccc12
 : 11	/	97	51*	i	55*	-5	27*
> O=c1[nH]c(CSc2ncc(C(F)(F)F)cc2Cl)nc2ccccc12
 : -9	5	103	53*	i	77*	11	54*
> O=c1[nH]c(CSc2ncnc3sccc23)nc2cc(C(F)(F)F)ccc12
 : 7	-20	101	1	i	/	/	/
> CNC(=O)C[C@H]1CC[C@@H]2[C@@H](COc3ccc(NC(=O)Nc4cccc(C)c4)cc3C(=O)N2C)O1
 : /	20	/	/	/	/	/	/
> C[C@H](CO)N1C[C@H](C)[C@H](CN(C)C(=O)Cc2cccnc2)Oc2ncc(C3=CCCCC3)cc2C1=O
 : /	-9	/	/	/	/	/	/
> N#Cc1ccc(CSc2nnc(Nc3ccccc3)s2)cc1
 : 2	-9	/	52*	i	64*	-1	39*
> Cc1[nH]c2ccc(F)cc2c(=O)c1SC(F)(F)C(F)C(F)(F)F (stereo not given)
 : 4	-21	113	13*	i	20*	2	7
> COc1ccc(NC(=O)Nc2ccc3c(c2)C(=O)N([C@H](C)CO)C[C@H](C)[C@@H](CN(C)S(=O)(=O)c2ccc(Cl)cc2)OCCCC[C@H](C)O3)cc1
 : /	-4	/	/	/	/	/	/
> CCn1c(SCC(=O)c2c[nH]c3ccccc23)nc2cc(S(=O)(=O)N3CCOCC3)ccc21
 : 18	/	124	18*	i	82*	2	60*
> Cc1ccc(C(=O)N/C(=C\c2cccnc2)C(=O)N2CCCC2)cc1
 : -5	/	/	-1	i	/	/	/
> COc1ccc(/C=C(/NC(=O)c2ccccc2)c2nc3ccccc3[nH]2)cc1OC
 : 4	-7	94	0	i	/	/	/
> COc1ccc(C(=O)N/C(=C\c2cccs2)c2nc3ccccc3[nH]2)cc1OC
 : 2	/	102	8.2*	i	16*	0	2

3 entries out of the list above, arranged by the number in Yeast UUG start, high to low.
compound,Arrestin-AP2 inh,Yeast UUG start,DSG3 Ab inh,Rce1 inh,TbMetRS confirm,TbMetRS FP orth
COc1ccc(NC(=O)Nc2ccc3c(c2)C(=O)N([C@H](C)CO)C[C@H](C)[C@@H](CN(C)S(=O)(=O)c2ccc(Cl)cc2)OCCCC[C@H](C)O3)cc1,/,-4,/,/,/,/
COc1ccc(/C=C(/NC(=O)c2ccccc2)c2nc3ccccc3[nH]2)cc1OC,4,-7,94,i,/,/
O=C(NN1C(=O)/C(=C/c2ccc(O)cc2)SC1=S)c1cccc(O)c1,44,-9,116,i,14*,24*

(list continues)
Order of results: Arrestin-AP2 inh	Yeast UUG start	DSG3 Ab inh	Tb MetRS inh	Rce1 inh	TbMetRS confirm	Jurkat tox	TbMetRS FP orth
> Cc1ccc(C(=O)N/C(=C\c2cccnc2)c2nc3ccccc3[nH]2)cc1
 : -5	/	92	15*	i	35*	-4	11
> O=C(C[C@@H]1CC[C@H]2[C@@H](COC[C@@H](O)CN2C(=O)c2ccccc2F)O1)N1CCN(c2ccccc2)CC1
 : /	4	/	/	/	/	/	/
> COCC(=O)N(C)C[C@@H]1Oc2cc(C#CCC(C)C)ccc2S(=O)(=O)N([C@H](C)CO)C[C@H]1C
 : /	-3	/	/	/	/	/	/
> Cc1ccc2nc(/C(C#N)=C\c3cc(O)ccc3[N+](=O)[O-])[nH]c2c1
 : 34	/	97	14*	i	38*	-7	9
> COc1cc(/C=C(\C#N)c2nc3ccc(C)cc3[nH]2)c([N+](=O)[O-])cc1OC
 : 26	-24	95	5	i	/	/	/
> Cc1ccc(S(=O)(=O)N(C)C[C@@H]2OCCCC[C@@H](C)Oc3ccc(NC(=O)Nc4cccc5ccccc45)cc3C(=O)N([C@H](C)CO)C[C@H]2C)cc1
 : /	-7	/	/	/	/	/	/
> NC(=O)CCCSc1nc2ccccc2[nH]1
 : 4	/	104	0	i	/	/	/
> Cc1cc(C)cc(NC(=O)CCc2nc3ccccc3[nH]2)c1
 : 11	-25	96	5	i	/	/	/
> Cc1cccc(NC(=O)CCCSc2nc3ccccc3[nH]2)c1
 : 0	/	75	17*	i	18*	7	6
> CCc1cccc(NC(=O)CCCSc2nc3ccccc3[nH]2)c1
 : -42	/	129	26*	i	44*	6	17*
> COc1ccc(N2CCN(C(=O)CCCSc3nc4ccccc4[nH]3)CC2)cc1
 : 24	-34	106	6.6*	i	20*	4	7
> O=C(CCCSc1nc2ccccc2[nH]1)Nc1ccccc1
 : -9	-16	84	1	i	/	/	/
> Cc1cc(C)cc(NC(=O)CCCSc2nc3ccccc3[nH]2)c1
 : -5	/	98	11*	i	22*	-4	10
> N#Cc1ccc(-c2ccc3c(c2)[C@H]2[C@H](CCN2Cc2cncnc2)[C@H](CO)N3)cc1
 : /	-13	/	/	/	/	/	/
> COc1ccc(NC(=O)Nc2ccc3c(c2)C(=O)N([C@H](C)CO)C[C@@H](C)[C@H](CN(C)Cc2ccc(Oc4ccccc4)cc2)O3)cc1
 : /	12	/	/	/	/	/	/
> CCN(CC(=O)Nc1c(F)cccc1F)C(=O)c1ccc(-n2cncn2)c([N+](=O)[O-])c1
 : -5	-3	104	2	i	/	/	/
> O=C(NCCCc1ccccc1)c1ccc(-n2cncn2)c([N+](=O)[O-])c1
 : -1	-14	103	21*	i	58*	-1	35*
> O=C(c1ccc(-n2cncn2)c([N+](=O)[O-])c1)N1CCN(c2cccc(Cl)c2)CC1
 : -12	-7	108	5.8*	i	20*	5	6
> Cc1ccc(NC(=O)CN(C)C(=O)c2ccc(-n3cncn3)c([N+](=O)[O-])c2)cc1
 : 25	/	31	10*	i	38*	-1	16
> COc1cc(OC)cc(C(=O)NNC(=O)c2ccc(-n3cncn3)c([N+](=O)[O-])c2)c1
 : -17	-18	104	6.0*	i	31*	3	17*

Some of these compounds in order of formula weight, smallest number first.
Order of results: Arrestin-AP2 inh	Yeast UUG start	DSG3 Ab inh	Tb MetRS inh	Rce1 inh	TbMetRS confirm	Jurkat tox	TbMetRS FP orth
> O=C(NCCCc1ccccc1)c1ccc(-n2cncn2)c([N+](=O)[O-])c1
 : -1	-14	103	21*	i	58*	-1	35*
> COc1ccc(NC(=O)Nc2ccc3c(c2)C(=O)N([C@H](C)CO)C[C@@H](C)[C@H](CN(C)Cc2ccc(Oc4ccccc4)cc2)O3)cc1
 : /	12	/	/	/	/	/	/
> CC(C)C[C@@H](CNCC(=O)[C@H](C)NC(=O)c1[nH]cnc1C(=O)N[C@@H](C)CN)NC(=O)c1nc[nH]c1C(=O)N[C@@H](CC(=O)O)C(=O)O
 : -6	-7	100	1	/	/	/	/
